The values that follow are results of earlier work, collected in US3931396A, “Method of preparation of a composition having a base of 99^m technetium for diagnosis by scintigraphy” (priority 1974, dated 1976).

This data set has as its system bone. As to conditions: prior art, in words; cited from earlier work.

Turning to fluorophosphate, the tropism entry is reported as “poor tropism”.
